Values quoted from earlier work, collected in PMC3602246 (BMC Pharmacology & Toxicology, 2013).

Tested on: MOR
Conditions: read-out: Ki, affinity binding to the MOR; literature values, one reference per ligand; ref Reference column of Table S1; cited from earlier work

CN(C(=O)Cc1ccccc1)[C@H](CN1CCCC1)c1ccccc1
Ki: > 1000 nM
